This is a selection; strong and weak results do not stand in their true shares. Calls of active or inactive are those of the source.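 The calls were made as follows: active = inhibition at 20 µM, scaled to each plate's controls, above about 33% (limit read from the data); inactive = the rest.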

The chains behind the UniProt entries cited, without tags or fusion partners.
UniProt O00487, whole entry, looked up: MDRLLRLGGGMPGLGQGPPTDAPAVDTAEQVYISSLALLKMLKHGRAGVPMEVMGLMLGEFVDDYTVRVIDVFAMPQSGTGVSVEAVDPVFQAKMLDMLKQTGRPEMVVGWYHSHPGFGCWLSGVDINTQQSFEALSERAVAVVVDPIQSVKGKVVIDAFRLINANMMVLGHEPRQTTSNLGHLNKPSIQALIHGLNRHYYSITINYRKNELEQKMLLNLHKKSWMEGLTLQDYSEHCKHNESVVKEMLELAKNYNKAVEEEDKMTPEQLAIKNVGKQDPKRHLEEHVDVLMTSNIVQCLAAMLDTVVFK

The target in the experiment is 26S proteasome non-ATPase regulatory subunit 14 (Homo sapiens) (UniProt O00487). As to the kind of experiment: Rpn11 (PSMD14) deubiquitinase inhibitors, primary screen, biochemical, fluorescence polarization, uHTS (AID 588493). The settings on record: human 26S proteasome, Ub4-pepOG fluorescence polarization; at 20 µM; hits give high values; 20S core pre-blocked with epoxomicin. (Polarisation of emitted light reports the rotation of a fluorescent probe.)
The term inhibition denotes the change of the read-out against control, counted positive when it falls. In the case of `O=P1(N(CCCl)CCCl)OCCC2CCCCN21` (centres undefined), the inhibition is inactive: -3.4%.

`O=C(NC1CCS(=O)(=O)C1)NP(=S)(Oc1ccccc1)Oc1ccccc1` (centres undefined): the inhibition was inactive: -0.2%.

Turning to `CCNC(=S)/N=C(\N)N[N+](=O)[O-]`, the inhibition was inactive: -2.5%.

As for `c1ccc(-c2nn[nH]n2)c(-c2nn[nH]n2)c1`, the inhibition is inactive: 1.8%.

Take `Cc1ccc(NP(=O)(Oc2cccc(C)c2)Oc2cccc(C)c2)nc1`: the inhibition was inactive: 1.1%.

Consider `CC(NC(=O)COC(=O)C(O)(c1ccccc1)c1ccccc1)c1ccccc1` (centres undefined), for which the inhibition was inactive: -3.5%.

On to `Cc1ccccc1OP(=O)(Nc1ccccn1)Oc1ccccc1C`, for which the inhibition was inactive: -8.3%.

`O=c1c2cc([N+](=O)[O-])ccc2[nH]c2c([N+](=O)[O-])cc([N+](=O)[O-])cc12`: the inhibition was inactive: 18.5%.

Take `CN(C)C(=O)Oc1noc2ccccc12`: the inhibition was inactive: -0.8%.

Turning to `COC(=O)c1cc2c(s1)N=C(c1ccccc1)N(C)P2(=O)N1CCOCC1` (centres undefined), the inhibition is inactive: 2.2%.

Regarding `Cc1ccc(OP(=O)(Nc2ccccn2)Oc2ccc(C)cc2)cc1`, the inhibition is inactive: -1%.

Regarding `CC(=O)NC(SC(=S)N(CC(C)C)CC(C)C)C(Cl)(Cl)Cl` (centres undefined), the inhibition was inactive: 6.7%.

For `O=C(OC1CN2CCC1CC2)c1ccccc1` (centres undefined), the inhibition was inactive: 7.2%.

With `CCC(=O)N1C2C3N(C(=O)CC)C1C1N(C(=O)CC)C(C(N1C(=O)CC)N3C(=O)CC)N2C(=O)CC`, the inhibition was inactive: 7.7%.

As to `CCc1cc(O)c([N+](=O)[O-])c(C)c1[N+](=O)[O-]`, the inhibition is inactive: -2%.

In the case of `CC(C)(C)C(=O)NC(Sc1ccccc1)C(Cl)(Cl)Cl` (centres undefined), the inhibition is inactive: -1.8%.

On to `O=P1(Nc2nc3ccc(Cl)cc3s2)COc2ccccc2O1` (centres undefined), for which the inhibition is inactive: -1.6%.

In the case of `CCOc1ccc(C2=NCC(CBr)S2)cc1` (centres undefined), the inhibition is inactive: -7.9%.

On to `CC(=O)Nc1ccc([As](=O)(O)O)c(O)c1`, for which the inhibition is inactive: 7.2%.

On to `CC(=O)Nc1ccc(Oc2c([N+](=O)[O-])cc([N+](=O)[O-])cc2[N+](=O)[O-])cc1`, for which the inhibition is inactive: -0.9%.

On to `CC(=O)c1ccc(N2CC2c2ccncc2)cc1` (centres undefined), for which the inhibition was inactive: -1.9%.

Take `N#C/C(=C\c1ccc(N(CCBr)CCBr)cc1)C(N)=O`: the inhibition was inactive: 3.5%.

Consider `COC(=O)C1(C)COP(=O)(NCc2ccccc2)OC1` (centres undefined), for which the inhibition is inactive: 1.3%.

Regarding `Cc1ccccc1CN(C)C(=O)COC(=O)C(O)(c1ccccc1)c1ccccc1`, the inhibition is inactive: -2.3%.

For `C[C@H]1OP(=O)(Oc2ccccc2)C[C@@H]2O[C@@H]21` (some centres undefined), the inhibition was inactive: -2.1%.

Turning to `C[C@@H]1C=CCP(=O)(Oc2ccccc2)O1` (some centres undefined), the inhibition was inactive: 2%.

Take `c1nnnn1CCn1cnnn1`: the inhibition is inactive: -6.8%.

For the compound `O=P(Nc1nccs1)(c1ccccc1)c1ccccc1`, the inhibition was inactive: -1.2%.

For the compound `CC(C)C(=O)NC(Sc1ccccc1)C(Cl)(Cl)Cl` (centres undefined), the inhibition was inactive: -0.6%.

With `O=P(Nc1nc2ccccc2s1)(c1ccccc1)c1ccccc1`, the inhibition is inactive: 0%.

As to `C[C@H]1OP(=O)(Oc2ccccc2)[C@H](O)[C@H](O)[C@H]1N=[N+]=[N-]` (some centres undefined), the inhibition was inactive: -1.6%.

With `COc1ccc(N)c([N+](=O)[O-])c1[N+](=O)[O-]`, the inhibition was inactive: -4.1%.

In the case of `Nc1ccc(CCCCOc2ccccc2)cc1`, the inhibition was inactive: -1.9%.

Take `CN(C)C1(CNC(=O)c2ccc(Cl)c(S(N)(=O)=O)c2)CCCCC1`: the inhibition is inactive: -5%.

For the compound `O=P(Nc1ccccn1)(c1ccc(Br)cc1)c1ccc(Br)cc1`, the inhibition was inactive: -0.7%.

Regarding `C(Cc1nn[nH]n1)Cc1nn[nH]n1`, the inhibition is inactive: -4.6%.

In the case of `Nc1ccc([As](=O)(O)c2ccc([N+](=O)[O-])cc2)cc1`, the inhibition was inactive: 2.2%.

For `O=C(OC1CN2CCC1CC2)c1cccc(Cl)c1` (centres undefined), the inhibition is inactive: 3.6%.

As to `O=[N+]([O-])c1ncn(CCn2cnc([N+](=O)[O-])n2)n1`, the inhibition was inactive: 4.1%.

As for `CC(=O)NC(SC(=S)N(C)C)C(Cl)(Cl)Cl` (centres undefined), the inhibition was inactive: -1.7%.

`O=[N+]([O-])c1ccc(O)c(/C=N/Nc2ccc([N+](=O)[O-])cc2[N+](=O)[O-])c1`: the inhibition was inactive: -27.8%.

For `O=[As](O)(c1ccccc1)c1ccc(O)cc1`, the inhibition is inactive: -6%.

With `O=C(Nc1cc([As](=O)(O)O)ccc1O)c1ccccc1`, the inhibition was inactive: -0.8%.

Consider `O=P1(N(CCCl)CCCl)OCCCS1` (centres undefined), for which the inhibition is inactive: 1.7%.

In the case of `COC(=O)C1(C)COP(=O)(Nc2ccccc2)OC1` (centres undefined), the inhibition was inactive: -3.3%.

Consider `O=[N+]([O-])c1cccc(NC2=NCC(CBr)S2)c1` (centres undefined), for which the inhibition is inactive: 0.8%.

Take `O=C(O)CNc1ccc([As](=O)(O)O)cc1`: the inhibition was inactive: 6.4%.

Consider `CC(C)(C)C(=O)NC(Sc1ccncn1)C(Cl)(Cl)Cl` (centres undefined), for which the inhibition is inactive: -5.6%.

`O=[N+]([O-])c1ncn(CCn2ncnc2[N+](=O)[O-])n1`: the inhibition was inactive: 0.6%.

For the compound `CC(=O)N1C2C3N(C(C)=O)C1C1N(C(C)=O)C(C(N1C(C)=O)N3C(C)=O)N2C(C)=O`, the inhibition was inactive: -1.4%.

On to `O=[N+]([O-])c1cccc2n[nH]nc12`, for which the inhibition is inactive: -1.9%.

Consider `Cc1ccc(NP(=O)(Oc2ccccc2)Oc2ccccc2)nc1`, for which the inhibition was inactive: -3.4%.

For `O=[N+]([O-])c1cc([N+](=O)[O-])c(CCNc2ccccc2)c([N+](=O)[O-])c1`, the inhibition was inactive: 4.5%.

Regarding `CCc1nc2c(n1)c1c(non1O)c1c2no[n+]1[O-]`, the inhibition is inactive: 4%.

Consider `COc1ccc(C2=NCC(CBr)S2)cc1` (centres undefined), for which the inhibition was inactive: 1.5%.

Take `CC(C)c1nc(Nc2ccccc2)n(P(=O)(N(C)C)N(C)C)n1`: the inhibition is inactive: -2.7%.

For `CC(C)=N/N=C(\N)N[N+](=O)[O-]`, the inhibition is inactive: -4.5%.

As for `CN(C)C(=O)OCCc1n(C)cc[n+]1C`, the inhibition was inactive: -4.5%.

On to `CC1CCN(C(=O)Oc2c(Cl)cc(Cl)c3cccnc23)CC1`, for which the inhibition was inactive: 0.7%.

As for `c1cc(-c2nn[nH]n2)ccc1-c1nn[nH]n1`, the inhibition is inactive: -3.4%.

As to `Nc1ccc([As](=O)(O)c2ccc(N)cc2)cc1`, the inhibition is inactive: -6.5%.

`C[N+]1=C2C=CC=CC=C2SC12C([N+](=O)[O-])=CC([N+](=O)[O-])=C[C-]2[N+](=O)[O-]` (centres undefined): the inhibition was inactive: -2.7%.

For `CCN(/C(=N/P(=O)(N1CCOCC1)N1CCOCC1)N1CCOCC1)c1ccc(OC)cc1`, the inhibition was inactive: 9%.

For `COc1ccccc1OP(=O)(Nc1ccc(C)cn1)Oc1ccccc1OC`, the inhibition was inactive: -6.2%.

With `Cc1ccc(OP(=O)(Nc2nccs2)Oc2ccc(C)cc2)cc1`, the inhibition is inactive: 2.4%.

For `CN1CCCC(OC(=O)C(c2ccccc2)c2ccccc2)C1` (centres undefined), the inhibition is inactive: -10.4%.

Turning to `Clc1ccc(Cl)c(NC2=NCC(CBr)S2)c1` (centres undefined), the inhibition is inactive: -8.7%.

Take `NC(=O)c1cc([N+](=O)[O-])cc([N+](=O)[O-])c1N`: the inhibition is inactive: 0.3%.

On to `CN(C(=O)Cc1ccc(Cl)c(Cl)c1)[C@H]1CCCC[C@H]1N1CCCC1`, for which the inhibition was inactive: -4.8%.

Turning to `Cc1ccc(N/C(=N/P(=O)(N2CCOCC2)N2CCOCC2)N2CCOCC2)cc1`, the inhibition is inactive: -4.8%.

In the case of `O=[N+]([O-])C1C(O)C(O)C([N+](=O)[O-])C(O)C1O` (centres undefined), the inhibition was inactive: -8.6%.

Consider `Nc1cc(N)c2nonc2c1[N+](=O)[O-]`, for which the inhibition is inactive: 2.7%.

Regarding `CC(C)CC(=O)NC(Sc1ccc(Cl)cc1)C(Cl)(Cl)Cl` (centres undefined), the inhibition is inactive: 0.6%.

Regarding `Oc1ccccc1CNc1ccccn1`, the inhibition is inactive: -0.6%.

`O=C(NC(Sc1ccncn1)C(Cl)(Cl)Cl)c1ccccc1` (centres undefined): the inhibition is inactive: -4.6%.

On to `Cc1cc(SC(NC(=O)c2ccc(F)cc2)C(Cl)(Cl)Cl)ncn1` (centres undefined), for which the inhibition was inactive: -3%.

Consider `CCOP(=O)(Nc1ccccc1)OCC`, for which the inhibition is inactive: 4.4%.

With `CN(C(=O)Cc1ccc(Cl)c(Cl)c1)[C@H]1CCCC[C@@H]1N1CCCC1`, the inhibition was inactive: -3.7%.

As to `Cc1ccc(NP(=O)(Oc2ccccc2F)Oc2ccccc2F)nc1`, the inhibition was inactive: -4.8%.

Regarding `CC(=O)Nc1ccc([As](=O)(O)O)cc1`, the inhibition was inactive: -4.1%.

`O=C(O)c1ccccc1[As](=O)(O)O`: the inhibition is inactive: -8.1%.

Turning to `CCCC1OP(N)(=O)OCC1CC` (centres undefined), the inhibition is inactive: 0.8%.

Turning to `O=P(Nc1nc2ccc(Cl)cc2s1)(c1ccccc1)c1ccccc1`, the inhibition is inactive: 2.5%.

`CN(C)P(=O)(N(C)C)n1c(Nc2ccccc2)nnc1-c1ccccc1`: the inhibition is inactive: 6.5%.

As for `CCN(N=Nc1nonc1N)c1nonc1N`, the inhibition is inactive: 5.6%.

As to `Nc1cccc2ccc([As](=O)(O)O)cc12`, the inhibition is inactive: -4.6%.

As to `Cc1ccc2nc3c(c(C)c2c1)CC(C(Cl)Cl)S3` (centres undefined), the inhibition is inactive: 8.2%.

Turning to `Cc1ccc(OP(=O)(Nc2ccc([N+](=O)[O-])cn2)Oc2ccc(C)cc2)cc1`, the inhibition was inactive: 4.4%.

For the compound `C[As](=O)(O)c1cccc(C(=O)O)c1`, the inhibition was inactive: -2.4%.

Regarding `O=[As](O)(c1ccc(O)cc1)c1ccccc1O`, the inhibition is inactive: -1.8%.

Consider `O=[N+]([O-])c1ccc(-c2cc([N+](=O)[O-])c(O)c([N+](=O)[O-])c2)cc1`, for which the inhibition was inactive: 1.2%.

As to `COc1cc(C(=O)NCC2(N3CCOCC3)CCCCC2)ccc1OCC(C)C`, the inhibition is inactive: -3.8%.

Regarding `CC(C)NC(=O)NP(=O)(Oc1ccccc1)Oc1ccccc1`, the inhibition is inactive: -8.9%.

Take `O=C(OC1CN2CCC1CC2)c1cccc2[nH]cnc12` (centres undefined): the inhibition was inactive: 0.7%.

As to `CCN(CC)C(=S)SC(NC=O)C(Cl)(Cl)Cl` (centres undefined), the inhibition was inactive: 0.4%.

In the case of `O=[N+]([O-])c1cc([N+](=O)[O-])c(-c2ccn[nH]2)s1`, the inhibition was inactive: 1.9%.

With `COC(=O)C1(C)COP(=O)(N2CCCCCC2)OC1` (centres undefined), the inhibition is inactive: -3.6%.

As to `CC(C)c1ccc(OP(=O)(Nc2ccccn2)Oc2ccccc2F)cc1` (centres undefined), the inhibition was inactive: -5.1%.

For the compound `ClCCSc1nnc(-c2cccnc2)o1`, the inhibition is inactive: 0.2%.

Take `COc1ccc2nc(NP(=O)(c3ccccc3)c3ccccc3)sc2c1`: the inhibition was inactive: 0.8%.

As to `COc1cc(I)ccc1[As](=O)(O)O`, the inhibition was inactive: -4%.

For the compound `O=P1(N(CCCl)CCCl)Nc2ccccc2N1`, the inhibition was inactive: -4.1%.

With `O=P1(N(CCCl)CCCl)OCCCN1CCCl` (centres undefined), the inhibition was inactive: 1%.

`O=C(OC1CN2CCC1CC2)C12CC3CC(CC(C3)C1)C2` (centres undefined): the inhibition was inactive: -10.8%.
